Here are results for 61 molecules from PubChem BioAssay AID819 (Columbia University Molecular Screening Center, 2007).

The entries are a selection whose mix differs from that of the whole data set. Active and inactive are the calls of the source.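 Rule for the calls: active = activation above 40%, about the mean plus 3 SD, also judged a hit on visual image review; inconclusive = activation above 40% but not a hit on visual review; inactive = activation not above 40% and no visual hit.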

This experiment is described as follows: enhancers of NFkB p65 translocation in HUVEC – imaging, IL-1B stimulus, high-content imaging, primary screen (AID 819).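 Note: percent activation is computed from the nuclear over cytoplasmic p65 intensity ratio.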 Conditions: HUVEC IL-1B NFkB p65 nuclear translocation imaging; at 2 µM; stronger effect = higher value.
`Cc1nn(-c2ccccc2)c2c1P(=O)(N1CCOCC1)N(C)C(c1ccccc1)=N2` (stereo unspecified): the activation was inactive: 17.8%. As to `COc1ccccc1OP(C)(=O)Nc1c(C)cccc1C` (stereo unspecified), the activation was inactive: -1.34%. As for `O=P1(Nc2ncccn2)COc2ccccc2OC1`, the figure is inactive: 5.46%.

`Cc1ccc(OCC(=O)OC2CN3CCC2CC3)cc1` (stereo unspecified): the activation is inactive: 1.42%. As to `O=P1(Nc2ccc(Br)cn2)COc2ccccc2OC1`, the activation was inactive: 3.48%.

In the case of `O=P1(Nc2ccccn2)COc2ccccc2OC1`, the activation was inactive: 15.9%. Consider `Clc1n[nH]nc1-c1nn[nH][15n]1`, for which the activation was inactive: -0.84%.

Regarding `Cc1nc2ccc3ccccc3c2s1.O=[N+]([O-])c1cc([N+](=O)[O-])c(O)c([N+](=O)[O-])c1`, the activation is inactive: -4.34%. As to `CC1(CBr)Cn2c(nc3ccccc3c2=O)S1` (stereo unspecified), the activation is inactive: -7.47%. For `Cc1cccc(OCC(=O)OC2CN3CCC2CC3)c1` (stereo unspecified), the activation was inactive: 22.3%. As for `Cc1cc(C)cc(OP(C)(=O)Nc2ccccn2)c1` (stereo unspecified), the figure is inactive: -22.4%; as for `Cc1ccc(C)c(NP(C)(=O)Oc2ccccc2)c1` (stereo unspecified), inactive: 18%; as for `CCOP1(=S)c2c(C)nn(CCC#N)c2N=C(c2ccccc2F)N1C` (stereo unspecified), inactive: 2.5%.

With `CCOP1(=S)c2c(C)nn(CCC#N)c2N=C(c2ccc(F)cc2)N1C` (stereo unspecified), the activation was inactive: 1.03%.

Turning to `O=[N+]([O-])c1ccc2c(c1)nnn2O`, the activation is inactive: 0.17%.

Regarding `ClCCSc1nnc(-c2cccnc2)o1`, the activation was inactive: -10.5%. With `COc1ccc(OP(C)(=O)Nc2cccc(F)c2)cc1` (stereo unspecified), the activation was inactive: 10.8%. As for `CCN(CC)C(=S)SC(NC=O)C(Cl)(Cl)Cl` (stereo unspecified), the figure is inactive: -0.59%; as for `O=C(OC1CN2CCC1CC2)C12CC3CC(CC(C3)C1)C2` (stereo unspecified), inactive: 19.3%. Consider `COP1(=S)c2c(C)nn(CCC#N)c2N=C(c2ccc(F)cc2)N1C` (stereo unspecified), for which the activation was inactive: -5.21%. Turning to `CP(=O)(NC(=O)Nc1ccccc1)Oc1ccccc1` (stereo unspecified), the activation is inactive: 2.71%. With `O=C(COc1ccccc1)OC1CN2CCC1CC2` (stereo unspecified), the activation was inactive: -7.22%. As for `CCC(C)N(CC(C)C)C(=S)SC(NC(C)=O)C(Cl)(Cl)Cl` (stereo unspecified), the figure is inactive: 4.89%. As for `CP(=O)(Nc1ccccn1)Oc1ccc(Cl)cc1` (stereo unspecified), the figure is inactive: 4.32%; as for `CP(=S)(Nn1cnnc1)Oc1ccccc1` (stereo unspecified), inactive: 8.13%.

As to `CP(=O)(OC12CC3CC(CC(C3)C1)C2)OC12CC3CC(CC(C3)C1)C2`, the activation was inactive: 20.3%. For the molecule `CCN(CC)CC(O)COC(=O)C(O)(c1ccccc1)C1CCCCC1` (stereo unspecified), the activation was inactive: -1.37%. Take `CCc1nc2c(n1)c1c(non1O)c1c2no[n+]1[O-]`: the activation is inactive: 13.2%. Turning to `CP(=O)(Oc1ccccc1)N1CCOC1=O` (stereo unspecified), the activation is inactive: -6.28%. Turning to `CC(=O)N1C2C3N(C(C)=O)C1C1N(C(C)=O)C(C(N1C(C)=O)N3C(C)=O)N2C(C)=O`, the activation was inactive: -0.5%. On to `O=[N+]([O-])c1cccc2n[nH]nc12`, for which the activation is inactive: -0.26%. Regarding `COc1ccccc1OP(C)(=O)Nc1c(C)n(C)n(-c2ccccc2)c1=O` (stereo unspecified), the activation was inactive: 23.1%. For `CP(=O)(Nc1ccc(Cl)cc1)Oc1ccc(F)cc1` (stereo unspecified), the activation is inactive: 20.9%.

`CC(C)(C)c1ccc(OP(C)(=O)O)cc1`: the activation was inactive: 3.7%. Consider `CC1CCN(C(=O)Oc2c(Cl)cc(Cl)c3cccnc23)CC1`, for which the activation was inactive: 3.49%.

With `CN1CCCC(OC(=O)C(c2ccccc2)c2ccccc2)C1` (stereo unspecified), the activation was inactive: -7.83%. As for `CN(C)CCOC(=O)C(O)(c1ccccc1)C1CCCC1` (stereo unspecified), the figure is inactive: 5.91%; as for `COc1ccc(OP(C)(=O)Nc2ccccn2)cc1` (stereo unspecified), inactive: 15.8%. `Cc1c2non([O-])c-2c(C)[n+](=O)[n+]1[O-]`: the activation was inactive: 16.9%. With `Oc1ccccc1CNc1ccccn1`, the activation is inactive: 8.93%. As for `Cc1c(NP(C)(=O)Oc2ccc(C(C)C)cc2)c(=O)n(-c2ccccc2)n1C` (stereo unspecified), the activation is inactive: -3.62%. On to `CC(C)CC(=O)NC(Sc1ccc(Cl)cc1)C(Cl)(Cl)Cl` (stereo unspecified), for which the activation is inactive: 4.25%.

Take `CCc1ccc(OP(C)(=O)O)cc1`: the activation was inactive: 0.99%. On to `COc1ccccc1OP(C)(=O)Nc1ccc(C)cc1C` (stereo unspecified), for which the activation is inactive: -2.48%. For the molecule `CP(=O)(Nc1ccccn1)Oc1ccccc1` (stereo unspecified), the activation was inactive: 2.76%. As for `COc1ccccc1OP(C)(=O)Nc1ccc(C)c(C)c1` (stereo unspecified), the figure is inactive: 2.05%.

On to `CCOP(=O)(Nc1ccccc1)OCC`, for which the activation is inactive: 3.56%.

Take `Cc1nc2ccc3ccccc3c2o1.O=[N+]([O-])c1cc([N+](=O)[O-])c(O)c([N+](=O)[O-])c1`: the activation was active: 41.7%. Consider `CCOC(=O)NC(Sc1ccccc1)C(Cl)(Cl)Cl` (stereo unspecified), for which the activation is inactive: -10.2%. As for `CCC(=O)N1C2C3N(C(=O)CC)C1C1N(C(=O)CC)C(C(N1C(=O)CC)N3C(=O)CC)N2C(=O)CC`, the activation is inactive: 22.5%.

As to `CCN(CC)CCCOC(=O)C(O)(c1ccccc1)C1CCCCC1` (stereo unspecified), the activation is inactive: 10.1%.

As for `COC(=O)c1cc2c(s1)N=C(c1ccccc1)N(C)P2(=O)N1CCOCC1` (stereo unspecified), the activation was inactive: -7.28%. Turning to `CP(=O)(Nc1ccccc1)Oc1ccc(F)cc1` (stereo unspecified), the activation is inactive: 17.6%.

With `O=P1(Nc2nc3ccc(Cl)cc3s2)COc2ccccc2O1` (stereo unspecified), the activation was inactive: 17.7%. As for `CP(=O)(Nc1ccccc1F)Oc1ccccc1` (stereo unspecified), the figure is inactive: -9.73%; as for `O=P(Nc1nccs1)(c1ccccc1)c1ccccc1`, inactive: 6.76%. For `c1nnnn1CCn1cnnn1`, the activation was inactive: -4.68%.

Take `CCOP(C)(=S)SCC(=O)NC(C)(CC)C(=O)O` (stereo unspecified): the activation was inactive: -0.3%. As for `CP(=O)(Nc1ccc2c(c1)OCCO2)Oc1ccccc1` (stereo unspecified), the figure is inactive: 33.2%; as for `CN(C)CCOC(=O)C(O)(c1ccccc1)C1CCCCC1` (stereo unspecified), inactive: -0.97%. As for `O=C(OC1CN2CCC1CC2)c1cccc(Cl)c1` (stereo unspecified), the activation is inactive: -11.7%.
